Reference: publication PMC9287138, “Proteasome activator 28γ (PA28γ) allosterically activates trypsin-like proteolysis by binding to the α-ring of the 20S proteasome” (The Journal of Biological Chemistry, 2022)

Legend:
[1] = target: T1, α3ΔN yeast 20S proteasome (α3ΔN-Y20S), constitutively open-gate (yeast), P21243
[2] = target: T1, α3ΔN yeast 20S proteasome (α3ΔN-Y20S), …; remark: listed apart in the source
[3] = target: T2, Proteasome activator 28γ (PA28γ), recombinant human, wild type (human), P61289; test: cryo-EM structure; PA28γ and H20S mixed at a 1:1 M ratio, plunge-frozen; single particle analysis in cryoSPARC, 876 particles, C7 symmetry applied, 4.3 Å; conditions: remark: other sources report otherwise
T2 chain: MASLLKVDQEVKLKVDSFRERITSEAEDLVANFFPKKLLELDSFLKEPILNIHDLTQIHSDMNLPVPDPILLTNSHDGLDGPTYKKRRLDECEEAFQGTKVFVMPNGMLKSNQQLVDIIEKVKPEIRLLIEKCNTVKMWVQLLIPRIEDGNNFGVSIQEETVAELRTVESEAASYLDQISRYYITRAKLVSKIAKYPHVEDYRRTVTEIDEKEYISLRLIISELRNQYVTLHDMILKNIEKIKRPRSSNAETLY

activation of α3ΔN-Y20S with the T-L substrate RLR-AMC by PA28γ (62.5 nM), against α3ΔN-Y20S controls [1]: 15 fold | decrease of the Km of α3ΔN-Y20S for the T-L substrate RLR-AMC with PA28γ (62.5 nM) [2]: > 400% | fold change of the catalytic efficiency (Kcat/Km) of the T-L site of α3ΔN-Y20S with PA28γ (62.5 nM) [2]: > 13 fold | increase of the Vmax of α3ΔN-Y20S for the T-L substrate RLR-AMC with PA28γ (62.5 nM) [2]: > 300% | stoichiometry N [3]: 7
B1: Proteasome activator 28γ (PA28γ), recombinant human, wild type, P61289 1-254 (natural protein)
chain: T2 chain
